Literature values as cited in patent publication US11819040B2, “Materials and methods for dietary calcium supplementation of animals” (DSM IP ASSETS B.V., priority 2017, dated 2023).

Conditions: in water

calcium gluconate
maximum soluble calcium: 2700 mg/L
